Assay results: patent publication US9732094B2, “Arylquinazolines” (Merck Patent GmbH, priority 2013, dated 2017)
pIC50: −log10 of the molar value.

Chains of the proteins cited; added tags and fusions are not shown.
UniProt P78527, whole entry: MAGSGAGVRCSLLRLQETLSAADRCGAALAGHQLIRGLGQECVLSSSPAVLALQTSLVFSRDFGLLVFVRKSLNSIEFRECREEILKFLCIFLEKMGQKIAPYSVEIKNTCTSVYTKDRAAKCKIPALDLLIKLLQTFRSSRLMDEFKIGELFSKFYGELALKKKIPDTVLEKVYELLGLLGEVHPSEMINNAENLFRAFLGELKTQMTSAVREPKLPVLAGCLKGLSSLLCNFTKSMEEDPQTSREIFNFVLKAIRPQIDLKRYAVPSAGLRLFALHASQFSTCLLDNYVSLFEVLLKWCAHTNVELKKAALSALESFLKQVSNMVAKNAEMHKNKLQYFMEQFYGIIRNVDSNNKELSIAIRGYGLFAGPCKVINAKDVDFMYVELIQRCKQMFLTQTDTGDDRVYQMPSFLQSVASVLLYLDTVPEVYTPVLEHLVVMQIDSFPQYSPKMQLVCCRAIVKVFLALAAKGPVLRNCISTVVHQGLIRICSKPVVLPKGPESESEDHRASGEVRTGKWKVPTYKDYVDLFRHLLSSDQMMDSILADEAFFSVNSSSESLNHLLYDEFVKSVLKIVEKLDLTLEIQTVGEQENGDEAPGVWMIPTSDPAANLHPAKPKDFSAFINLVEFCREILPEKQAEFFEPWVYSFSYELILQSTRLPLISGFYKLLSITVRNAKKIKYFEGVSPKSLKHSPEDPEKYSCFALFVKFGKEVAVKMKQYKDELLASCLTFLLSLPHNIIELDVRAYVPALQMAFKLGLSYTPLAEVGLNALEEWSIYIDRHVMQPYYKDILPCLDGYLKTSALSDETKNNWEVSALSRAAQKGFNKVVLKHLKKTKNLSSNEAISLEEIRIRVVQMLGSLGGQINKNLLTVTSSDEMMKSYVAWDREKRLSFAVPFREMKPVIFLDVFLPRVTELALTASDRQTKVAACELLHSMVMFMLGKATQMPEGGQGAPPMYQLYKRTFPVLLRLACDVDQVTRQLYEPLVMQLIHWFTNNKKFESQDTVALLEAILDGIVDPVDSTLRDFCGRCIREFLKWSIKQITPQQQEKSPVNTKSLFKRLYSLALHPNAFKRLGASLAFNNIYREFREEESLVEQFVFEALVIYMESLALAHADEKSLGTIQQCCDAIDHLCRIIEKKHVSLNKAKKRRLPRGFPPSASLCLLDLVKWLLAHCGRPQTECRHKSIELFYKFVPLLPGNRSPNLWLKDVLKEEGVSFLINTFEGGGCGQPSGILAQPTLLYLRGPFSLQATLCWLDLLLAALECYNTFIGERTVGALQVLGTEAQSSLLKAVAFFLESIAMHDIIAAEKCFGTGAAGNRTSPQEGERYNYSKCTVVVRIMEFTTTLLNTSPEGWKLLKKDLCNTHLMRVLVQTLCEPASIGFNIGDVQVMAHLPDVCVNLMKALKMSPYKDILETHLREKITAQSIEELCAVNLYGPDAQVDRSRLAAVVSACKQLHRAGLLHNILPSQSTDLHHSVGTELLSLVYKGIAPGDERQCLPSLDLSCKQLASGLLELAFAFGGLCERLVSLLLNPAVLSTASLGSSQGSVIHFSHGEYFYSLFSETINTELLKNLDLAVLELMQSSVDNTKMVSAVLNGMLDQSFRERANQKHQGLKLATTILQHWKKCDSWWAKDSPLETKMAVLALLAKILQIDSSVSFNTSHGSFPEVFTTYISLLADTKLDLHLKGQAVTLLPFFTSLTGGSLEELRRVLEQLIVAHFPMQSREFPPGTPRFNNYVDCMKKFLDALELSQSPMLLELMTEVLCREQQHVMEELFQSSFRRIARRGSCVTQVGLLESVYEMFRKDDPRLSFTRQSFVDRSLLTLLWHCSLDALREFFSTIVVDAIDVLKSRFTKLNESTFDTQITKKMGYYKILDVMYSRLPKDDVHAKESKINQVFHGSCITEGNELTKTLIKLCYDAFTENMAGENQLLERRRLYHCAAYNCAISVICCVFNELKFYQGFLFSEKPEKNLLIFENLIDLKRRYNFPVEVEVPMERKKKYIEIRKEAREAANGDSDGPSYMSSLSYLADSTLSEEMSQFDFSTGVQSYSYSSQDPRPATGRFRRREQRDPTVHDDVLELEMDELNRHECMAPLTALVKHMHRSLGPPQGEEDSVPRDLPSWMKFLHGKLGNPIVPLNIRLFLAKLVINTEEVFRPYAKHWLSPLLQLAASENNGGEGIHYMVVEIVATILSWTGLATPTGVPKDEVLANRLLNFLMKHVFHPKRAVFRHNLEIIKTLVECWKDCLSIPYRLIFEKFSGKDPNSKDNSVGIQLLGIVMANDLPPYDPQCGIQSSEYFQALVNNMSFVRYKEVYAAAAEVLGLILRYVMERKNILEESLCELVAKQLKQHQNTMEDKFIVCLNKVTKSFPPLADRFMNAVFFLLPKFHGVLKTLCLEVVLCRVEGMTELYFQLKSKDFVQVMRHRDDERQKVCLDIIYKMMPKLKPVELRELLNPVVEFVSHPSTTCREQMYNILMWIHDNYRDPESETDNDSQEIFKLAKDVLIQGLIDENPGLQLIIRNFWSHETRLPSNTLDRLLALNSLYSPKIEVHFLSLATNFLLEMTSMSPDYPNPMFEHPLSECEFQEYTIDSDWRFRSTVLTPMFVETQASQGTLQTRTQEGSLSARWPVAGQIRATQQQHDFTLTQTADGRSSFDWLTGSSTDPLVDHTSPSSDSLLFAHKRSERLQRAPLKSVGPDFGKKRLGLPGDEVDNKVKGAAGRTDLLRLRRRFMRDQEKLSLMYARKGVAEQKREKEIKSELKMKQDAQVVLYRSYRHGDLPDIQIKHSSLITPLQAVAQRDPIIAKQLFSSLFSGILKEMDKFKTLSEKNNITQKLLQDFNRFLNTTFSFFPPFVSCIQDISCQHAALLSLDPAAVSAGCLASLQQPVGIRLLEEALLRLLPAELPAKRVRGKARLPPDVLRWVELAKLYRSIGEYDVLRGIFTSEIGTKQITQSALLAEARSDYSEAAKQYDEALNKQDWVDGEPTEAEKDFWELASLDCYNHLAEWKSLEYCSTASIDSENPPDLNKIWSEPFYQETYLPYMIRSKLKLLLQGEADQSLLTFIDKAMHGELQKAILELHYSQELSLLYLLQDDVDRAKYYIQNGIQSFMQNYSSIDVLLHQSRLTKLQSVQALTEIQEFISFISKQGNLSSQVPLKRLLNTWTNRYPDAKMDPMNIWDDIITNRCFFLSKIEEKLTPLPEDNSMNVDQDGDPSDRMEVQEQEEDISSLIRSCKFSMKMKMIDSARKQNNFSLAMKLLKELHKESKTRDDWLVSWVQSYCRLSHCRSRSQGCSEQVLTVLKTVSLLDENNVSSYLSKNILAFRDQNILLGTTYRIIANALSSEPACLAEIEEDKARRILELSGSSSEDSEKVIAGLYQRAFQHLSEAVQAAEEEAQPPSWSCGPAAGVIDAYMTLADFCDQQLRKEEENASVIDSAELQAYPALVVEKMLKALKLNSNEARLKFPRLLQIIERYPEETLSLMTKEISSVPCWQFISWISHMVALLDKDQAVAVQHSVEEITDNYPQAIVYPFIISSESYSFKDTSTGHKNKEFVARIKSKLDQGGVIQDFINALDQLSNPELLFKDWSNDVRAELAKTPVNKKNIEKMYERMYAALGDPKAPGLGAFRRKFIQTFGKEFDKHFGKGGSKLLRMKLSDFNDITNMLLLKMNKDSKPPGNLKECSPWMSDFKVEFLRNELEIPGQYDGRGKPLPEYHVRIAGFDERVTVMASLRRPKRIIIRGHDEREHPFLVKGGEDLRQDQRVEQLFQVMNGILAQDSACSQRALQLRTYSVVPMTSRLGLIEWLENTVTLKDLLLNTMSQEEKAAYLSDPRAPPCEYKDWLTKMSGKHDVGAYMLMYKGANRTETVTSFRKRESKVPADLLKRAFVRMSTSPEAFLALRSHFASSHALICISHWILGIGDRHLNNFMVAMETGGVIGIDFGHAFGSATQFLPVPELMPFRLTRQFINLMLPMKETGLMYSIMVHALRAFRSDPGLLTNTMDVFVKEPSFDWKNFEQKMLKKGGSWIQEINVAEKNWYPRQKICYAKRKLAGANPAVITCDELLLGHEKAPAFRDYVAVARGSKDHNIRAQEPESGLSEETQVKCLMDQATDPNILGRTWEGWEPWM

How the values were obtained:
[1] = target: DNA-PK phosphorylation at serine 2056 (Homo sapiens (Human), UniProt P78527); experiment: DNA-PK phosphorylation at serine 2056 (cellular), bleomycin-treated HCT116 cells, ELISA; assay type: cell-based; settings: 10 μM bleomycin, six hours, read-out: IC50 pDNA-PK
Experimental: HCT116 cells were cultivated at 37° C. and 10% CO2 in MEM alpha medium with 10% of foetal calf serum and 2 mM glutamine. The cells were detached from the base of the culture vessels with the aid of trypsin/EDTA, centrifuged off in centrifuge tubes, taken up in fresh medium, and the cell density was determined. 100,000 cells were sown in 1 ml of culture medium per cavity of a 24-well cell culture plate and cultivated overnight. Next day, 10 μM bleomycin (DNA intercalator and inductor of DNA double-strand breaks) and test substances in fresh culture medium were added to the cells, and these were cultivated for a further six hours. […] The 96-well ELISA plates were subsequently treated with a detection antibody (Abcam ab79444: total DNA-PK) and a streptavidin-HRP conjugate. The development of the enzymatic reaction was carried out with the aid of a chemiluminescent reagent, the chemiluminescence was measured with the aid of a Mithras LB940. The signals with the phospho-DNA-PK-specific antibody were standardised to the signal with the antibody against the total protein DNA-PKc. […] The DMSO control was used as blank.

DNA-PK = DNA-PK (Homo sapiens (Human), UniProt P78527); experiment: DNA-PK assay (biochemical), flashplate 33P-ATP kinase assay; settings: enzymatic; 5 μM ATP
Experimental: A) DNA-PK Assay (Biochemical)
The kinase assay was carried out in streptavidin-coated […] microtitre flashplates. […] The reaction was stopped using 50 μl/well of 200 mM EDTA. After incubation for a further 30 min at room temperature, the liquid was removed. Each well was washed three times with 100 μl of 0.9% saline solution. A nonspecific reaction (blank value) was determined using 10 μM of an innate kinase inhibitor. The radioactivity measurement was carried out using a TopCount. IC50 values were calculated in RS1.

Row | SMILES | pIC50 [1] | pIC50 (DNA-PK)
1 | COc1ccc(C(O)c2cc(-c3ncnc4cc(N5CCOCC5)ccc34)c(F)cc2F)nn1 (single isomer, unassigned) [Example 129, [2,4-Difluoro-5-(7-morpholin-4-yl-quinazolin-4-yl)-phenyl]-(6-methoxy-pyridazin-3-yl)-methanol] | 5.00 to 5.30 | 7.52 to 8.15
2 | COc1ccc(C(O)c2cc(-c3ncnc4cc(N5CCOCC5)ccc34)c(F)cc2F)nn1 (single isomer, unassigned) [Example 130, [2,4-Difluoro-5-(7-morpholin-4-yl-quinazolin-4-yl)-phenyl]-(6-methoxy-pyridazin-3-yl)-methanol] | > 6.30 | > 8.52
3 | COc1ccc(C(O)c2cc(-c3ncnc4cc(N5CCOCC5)ccc34)c(F)cc2F)nn1 (stereo not drawn) [Example 131, [2,4-Difluoro-5-(7-morpholin-4-yl-quinazolin-4-yl)-phenyl]-(6-methoxy-pyridazin-3-yl)-methanol] | 5.30 to 6.30 | 8.15 to 8.52
